This is an account of results in patent publication US10947220B2, “Anti-proprotein convertase subtilisin kexin type 9 (anti-PCSK9) compounds and methods of using the same in the treatment and/or prevention of cardiovascular diseases” (Shifa Biomedical Corporation, priority 2016, dated 2021).

Chains of the proteins cited; added tags and fusions are not shown. Residues count along the entry.
UniProt Q8NBP7, 153-692 limits assumed: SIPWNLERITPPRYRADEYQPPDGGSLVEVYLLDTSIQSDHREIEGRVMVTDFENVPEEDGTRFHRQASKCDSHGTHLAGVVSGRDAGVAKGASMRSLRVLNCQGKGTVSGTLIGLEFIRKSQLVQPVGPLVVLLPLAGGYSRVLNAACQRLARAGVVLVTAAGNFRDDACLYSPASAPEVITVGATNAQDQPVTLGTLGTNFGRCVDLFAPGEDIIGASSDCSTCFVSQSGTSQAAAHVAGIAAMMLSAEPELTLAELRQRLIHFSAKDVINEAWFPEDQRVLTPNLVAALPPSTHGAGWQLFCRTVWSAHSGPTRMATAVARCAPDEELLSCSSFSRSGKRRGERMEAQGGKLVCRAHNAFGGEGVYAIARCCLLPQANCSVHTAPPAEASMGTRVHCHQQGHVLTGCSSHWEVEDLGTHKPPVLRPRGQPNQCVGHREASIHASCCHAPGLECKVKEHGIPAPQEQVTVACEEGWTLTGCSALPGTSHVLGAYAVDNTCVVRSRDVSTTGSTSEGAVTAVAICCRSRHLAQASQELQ
UniProt Q8NBP7, 31-152 partner limits assumed: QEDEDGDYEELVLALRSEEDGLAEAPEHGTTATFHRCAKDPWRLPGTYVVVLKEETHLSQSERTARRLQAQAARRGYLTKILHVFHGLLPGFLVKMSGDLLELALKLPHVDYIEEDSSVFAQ

Assay [1] has as its target PCSK9/LDLR interaction (His-tagged PCSK9, recombinant LDLR-AB domain) (Homo sapiens, UniProt Q8NBP7). Briefly: PCSK9/LDLR binding in vitro ELISA (Circulex kit). The method, then: For screening inhibitors of the PCSK9/LDLR interaction, different concentrations (0.01 nM-100 μM) of selected compounds were incubated with His-tagged PCSK9 and then added to wells that were pre-coated with recombinant LDLR-AB domain. After incubation, the plate was washed and the amount of recombinant His-tagged PCSK9 was measured using the biotinylated anti-His-tag and horseradish peroxidase conjugated Streptavidin, and quantitated using a BioTek Synergy 2 plate reader. The effect of each compound on the PCSK9 binding to the recombinant LDLR-AB domain was calculated.
Testing of compounds acquired from commercial sources was performed in our binding assay for their potential to inhibit the PCSK9/LDLR interaction. Initial screening was done using 100 μM of the compounds. Each compound was added to the binding reaction mixture in triplicate and assayed as described above. From the screening, a number of compounds were identified to have an effect on LDLR upregulation as compared to control (see Example 3 vide infra) while having no effect on PCSK9 processing and secretion (see Example 2 vide infra). Exemplary 2-carboxyanilide indoles and 2-carboxanilide pyrroles of the formula I that had >20% inhibition at 100 uM are shown in FIG. 1. Fifty five (55) structurally related 2-carboxyanlide benzofurans (compounds of the formulas II-IV) were also acquired. Compounds that inhibited the PCSK9/LDLR interaction were selected and analyzed using different compound concentrations ranging from 100 μM to 0.01 nM. […] (FIG. 4). Based on this preliminary SAR, an additional 34 compounds were designed and synthesized around SBC-115,337, and the compounds were tested in our binding assay as described in FIG. 4. From the screening, a number of benzofuran compounds were determined to have IC50's>10 uM but less </=50 uM (FIG. 2).

The subject of a further assay is HepG2 cells. The assay is described as follows: Uptake of fluorescent Dil-LDL in HepG2 cells transfected with PCSK9. The settings on record: 1.2 uM compound. The method, then: The SBC compounds were validated for their ability to increase uptake of Fluorescent Dil-LDL in HepG2 cells.
The SBC compounds were validated for their ability to increase uptake of Fluorescent Dil-LDL in HepG2 cells as described in FIG. 9.
In order to confirm that these PCSK9 antagonists upregulate functional LDLR, we tested the ability of these compounds to enhance the uptake of fluorescent Dil-LDL in HepG2 cells. Briefly, HepG2 cells transfected with PCSK9 (FIG. 4) were plated and allowed to grow overnight. Compounds were added to the cells followed by the addition of fluorescent Dil-LDL. Cells were washed extensively, and the fluorescent Dil-LDL taken up by the cells were measured using the Synergy 2 plate reader (FIG. 9 and FIG. 12). […] These compounds were selected for further analysis in the in vivo studies.

Where [2] appears, read: Table 1 / FIG. 11, SAR around SBC-115,337.

Each structure is given as a SMILES string. Where two headings read alike, the source gives them in different places.

For the compound `CNC(=O)c1ccc(NC(=O)c2ccc(NC(=O)c3oc4c(OC)cccc4c3C)cc2)cc1`, the IC50 in assay [1] (setting [2]) worked out at 5.5 µM.

`COc1ccc2oc(C(=O)Nc3ccc(C(=O)N(C)C)cc3)c(C)c2c1`: the IC50 in assay [1] (read-out: IC50, inhibition of the PCSK9/LDLR interaction, compound concentrations 100 μM to 0.01 nM, FIG. 4) is 7.3 µM. The “fluorescent Dil-LDL uptake” value in the assay with HepG2 cells is listed as “increase in fluorescently labeled LDL uptake”.

For `COc1cccc2c(C)c(C(=O)Nc3ccc(C(=O)Nc4ccc(C(C)(C)C)cc4)cc3)oc12`, the IC50 in assay [1] (setting [2]) was determined as 19.9 µM.

Consider `COc1cccc(NC(=O)c2ccc(NC(=O)c3oc4c(OC)cccc4c3C)cc2)c1`, for which the IC50 in assay [1] (setting [2]) was found to be 18.8 µM.

For `COc1ccc2oc(C(=O)Nc3ccc4c(c3)C(=O)N(C)C4=O)cc2c1`, the IC50 in assay [1] (setting [2]) came to 5.9 µM.

As to `COc1cccc2c(C)c(C(=O)Nc3ccc(C(=O)Nc4ccc(C5=NCCO5)cc4)cc3)oc12`, the IC50 in assay [1] (setting [2]) stood at 14.5 µM.
